{
  "sequences": {"note": "By UniProt entry, the sequences of proteins in these tests, tags left out. Where a name states a change or a piece, a line headed by the entry shows the natural chain unless it says otherwise.", "UniProt P43490": "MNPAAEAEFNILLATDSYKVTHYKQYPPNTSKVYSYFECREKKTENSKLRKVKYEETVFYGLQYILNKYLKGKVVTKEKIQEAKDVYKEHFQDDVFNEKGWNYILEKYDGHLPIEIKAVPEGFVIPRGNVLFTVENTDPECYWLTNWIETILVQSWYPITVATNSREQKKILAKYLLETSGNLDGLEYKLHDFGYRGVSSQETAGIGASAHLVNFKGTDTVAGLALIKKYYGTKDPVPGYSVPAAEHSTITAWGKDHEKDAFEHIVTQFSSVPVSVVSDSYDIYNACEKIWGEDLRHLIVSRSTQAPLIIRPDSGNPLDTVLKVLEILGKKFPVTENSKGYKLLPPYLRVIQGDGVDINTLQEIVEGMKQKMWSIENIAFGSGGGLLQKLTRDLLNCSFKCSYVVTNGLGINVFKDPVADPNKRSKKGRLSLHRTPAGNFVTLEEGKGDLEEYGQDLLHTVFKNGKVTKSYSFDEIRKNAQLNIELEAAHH"},
  "source": "BindingDB's records for patent US11485745",
  "about": "(Valo Health, 2022)",
  "molecular_target": "Nicotinamide phosphoribosyltransferase (Homo sapiens, UniProt P43490)",
  "assay": "Biochemical Inhibition Assay",
  "data": [
    {"smiles": "O=C(NCC1CC12CCN(C(=O)c1cc(C3CC3)c[nH]1)CC2)c1cc2ccncc2o1", "note": "(stereo unspecified) [US11485745, Example 123]", "values": [
      {"measurement": "IC50", "result": 66.1, "unit": "nM"}
    ]}
  ]
}
